{"source": "paper PMC3098941", "about": "(ACS chemical biology, 2011)", "origin": "cited, not measured here", "target": "cyclin A (Homo sapiens) (UniProt P20248)", "experiment": "mant-ATP fluorescence", "settings": "cited from earlier work"}
{"substance": "CDK2 (from UniProt P24941)", "values": [{"measurement": "Kd", "value": 1300, "unit": "nM"}]}
